# Test results: patent EP4831160A1, “TRISUBSTITUTED QUINAZOLINE DERIVATIVE, ACID ADDITION SALT THEREOF, AND PHARMACEUTICAL COMPOSITION AND USE THEREOF” (dated 2026)
# Experiments:
# [1] = tested on: BT-474 human breast cancer cell line; assay: In vivo efficacy study, subcutaneous BT-474 xenograft, p.o. QD×21; settings: 20 mg/kg, at the end of treatment, share of mice
# [2] = Systematic characterization of different salt crystal forms (comparison of properties); settings: for solid stability: impurity RRT= 0.29 / solid stability: impurity RRT= 0.78 / solid stability: impurity RRT= 0.89 / solid stability: purity / solid stability: impurity RRT= 0.36 / solid stability: impurity RRT= 0.19: sealed centrifuge tube, kept at RT; for solid stability: impurity RRT= 0.36 / solid stability: impurity RRT= 0.19: ND: not detected
# [3] = Pharmacokinetics in rats, intravenous and oral administration
# [4] = Systematic characterization of free base crystal forms (comparison of properties); settings: for solid stability: purity / solid stability: RRT= 0.29 / solid stability: RRT= 0.36 / solid stability: RRT= 0.62 / solid stability: RRT= 0.64 / solid stability: RRT= 0.78 / solid stability: RRT= 0.89 / solid stability: RRT= 0.91: sealed centrifuge tube, kept at RT; for solid stability: RRT= 0.29: impurity at RRT 0.29; for solid stability: RRT= 0.36: impurity at RRT 0.36; for solid stability: RRT= 0.62: impurity at RRT 0.62; for solid stability: RRT= 0.64: impurity at RRT 0.64; for solid stability: RRT= 0.89: impurity at RRT 0.89; for solid stability: RRT= 0.91: impurity at RRT 0.91
# [5] = Solid stability study by HPLC (purity by area normalization); settings: after 21 days at room temperature
# [6] = impurity at RRT 0.78, at day 23
# [7] = second value printed with "+" below the RRT 0.78 value, at day 23
Structure (SMILES),solid stability: impurity RRT= 0.29 ([2]; at day 0),solid stability: impurity RRT= 0.78 ([2]; at day 0),solid stability: impurity RRT= 0.89 ([2]; at day 0),solid stability: purity ([2]; at day 0),solid stability: purity ([4]; at day 0),solid stability: purity ([4]; at day 23),solid stability: RRT= 0.29 ([4]; at day 0),solid stability: RRT= 0.29 ([4]; at day 23),solid stability: RRT= 0.36 ([4]; at day 0),solid stability: RRT= 0.36 ([4]; at day 23),solid stability: RRT= 0.62 ([4]; at day 0),solid stability: RRT= 0.62 ([4]; at day 23),solid stability: RRT= 0.64 ([4]; at day 0),solid stability: RRT= 0.64 ([4]; at day 23),"solid stability: RRT= 0.78 ([4]; impurity at RRT 0.78, at day 0)","solid stability: RRT= 0.78 [4, 6]",solid stability: RRT= 0.89 ([4]; at day 0),solid stability: RRT= 0.89 ([4]; at day 23),solid stability: RRT= 0.91 ([4]; at day 0),solid stability: RRT= 0.91 ([4]; at day 23),also measured
CCOc1cc2ncc(C#N)c(Nc3ccc(OCc4ccccn4)c(Cl)c3)c2cc1NC(=O)/C=C/CN(C)C,,,,,,,,,,,,,,,,,,,,,mice that achieved complete tumor regression [1]: 87.5%
CCOc1cc2ncnc(Nc3ccc(Oc4ccc(F)cc4)cc3)c2cc1NC(=O)/C=C/CN(C)C.Cc1ccc(S(=O)(=O)O)cc1,0.04%,0.07%,0.07%,99.33%,,,,,,,,,,,,,,,,,solid stability: impurity RRT= 0.36 ([2]; at day 0): 0.01%; solid stability: impurity RRT= 0.29 ([2]; at day 24): 0.06%; solid stability: impurity RRT= 0.78 ([2]; at day 24): 0.19%; solid stability: impurity RRT= 0.89 ([2]; at day 24): 0.07%; solid stability: impurity RRT= 0.36 ([2]; at day 24): 0.02%
CCOc1cc2ncnc(Nc3ccc(Oc4ccc(F)cc4)cc3)c2cc1NC(=O)/C=C/CN(C)C.O=C(O)/C=C/C(=O)O,0.04%,0.05%,0.07%,99.67%,,,,,,,,,,,,,,,,,solid stability: impurity RRT= 0.29 ([2]; at day 24): 0.30%; solid stability: impurity RRT= 0.78 ([2]; at day 24): 0.05%; solid stability: impurity RRT= 0.89 ([2]; at day 24): 0.07%; solid stability: purity ([2]; at day 24): 99.51%
COc1cc2ncnc(Nc3ccc(Oc4ccc(F)cc4)cc3)c2cc1NC(=O)/C=C/CN(C)C,,,,,,,,,,,,,,,,,,,,,"Rat IV 1 mpk AUC0-t ([3]; rat, IV, 1 mpk): 240 (h*ng/mL); F% ([3]; rat, bioavailability, oral 10 mpk vs IV 1 mpk): 48%; Rat Oral 10 mpk AUC0-t ([3]; rat, oral, 10 mpk): 1152 (h*ng/mL); Cmax ([3]; rat, route not printed in the row, stands below the Rat Oral 10 mpk row): 73.5 ng/mL; bioavailability ([3]; rats, oral vs intravenous): 48%"
CCOc1cc2ncnc(Nc3ccc(Oc4ccc(F)cc4)cc3)c2cc1NC(=O)/C=C/CN(C)C.O=C(O)/C=C\C(=O)O [maleate crystal form B],,,,,,,,,,,,,,,,,,,,,"solid stability: impurity RRT= 0.36 ([2]; at day 0, maleate): 0.06%; solid stability: impurity RRT= 0.29 ([2]; at day 0, maleate): 0.07%; solid stability: impurity RRT= 0.78 ([2]; at day 0, maleate): 0.07%; solid stability: impurity RRT= 0.89 ([2]; at day 0, maleate): 0.08%; solid stability: purity ([2]; at day 0, maleate): 99.48%; solid stability: impurity RRT= 0.36 ([2]; at day 24, maleate): 0.06%; solid stability: impurity RRT= 0.29 ([2]; at day 24, maleate): 0.07%; solid stability: impurity RRT= 0.78 ([2]; at day 24, maleate): 0.07%; solid stability: impurity RRT= 0.89 ([2]; at day 24, maleate): 0.08%; solid stability: purity ([2]; at day 24, maleate): 99.49%"
CCOc1cc2ncnc(Nc3ccc(Oc4ccc(F)cc4)cc3)c2cc1NC(=O)/C=C/CN(C)C.O=C(O)/C=C\C(=O)O [maleate crystal form C],,,,,,,,,,,,,,,,,,,,,"solid stability [5]: obvious degradation; solid stability: impurity RRT= 0.19 ([2]; at day 0): 0.08%; solid stability: impurity RRT= 0.36 ([2]; at day 0, maleate): 0.01%; solid stability: impurity RRT= 0.29 ([2]; at day 0, maleate): 0.06%; solid stability: impurity RRT= 0.78 ([2]; at day 0, maleate): 0.08%; solid stability: impurity RRT= 0.89 ([2]; at day 0, maleate): 0.07%; solid stability: purity ([2]; at day 0, maleate): 99.43%; solid stability: impurity RRT= 0.19 ([2]; at day 24): 0.16%; solid stability: impurity RRT= 0.36 ([2]; at day 24, maleate): 0.03%; solid stability: impurity RRT= 0.29 ([2]; at day 24, maleate): 0.06%; solid stability: impurity RRT= 0.78 ([2]; at day 24, maleate): 0.08%; solid stability: impurity RRT= 0.89 ([2]; at day 24, maleate): 0.07%; solid stability: purity ([2]; at day 24, maleate): 98.79%"

# More lines, main results first:
solid stability: impurity RRT= 0.29 ([2]; at day 0),solid stability: impurity RRT= 0.78 ([2]; at day 0),solid stability: impurity RRT= 0.89 ([2]; at day 0),solid stability: purity ([2]; at day 0),solid stability: purity ([4]; at day 0),solid stability: purity ([4]; at day 23),solid stability: RRT= 0.29 ([4]; at day 0),solid stability: RRT= 0.29 ([4]; at day 23),solid stability: RRT= 0.36 ([4]; at day 0),solid stability: RRT= 0.36 ([4]; at day 23),solid stability: RRT= 0.62 ([4]; at day 0),solid stability: RRT= 0.62 ([4]; at day 23),solid stability: RRT= 0.64 ([4]; at day 0),solid stability: RRT= 0.64 ([4]; at day 23),"solid stability: RRT= 0.78 ([4]; impurity at RRT 0.78, at day 0)","solid stability: RRT= 0.78 [4, 6]",solid stability: RRT= 0.89 ([4]; at day 0),solid stability: RRT= 0.89 ([4]; at day 23),solid stability: RRT= 0.91 ([4]; at day 0),solid stability: RRT= 0.91 ([4]; at day 23),Structure (SMILES),also measured
0.05%,0.05%,0.06%,99.66%,,,,,,,,,,,,,,,,,CCOc1cc2ncnc(Nc3ccc(Oc4ccc(F)cc4)cc3)c2cc1NC(=O)/C=C/CN(C)C.Cl,solid stability: impurity RRT= 0.36 ([2]; at day 0): 0.01%; solid stability: impurity RRT= 0.29 ([2]; at day 24): 0.05%; solid stability: impurity RRT= 0.78 ([2]; at day 24): 0.05%; solid stability: impurity RRT= 0.89 ([2]; at day 24): 0.07%; solid stability: purity ([2]; at day 24): 99.66%
0.06%,0.06%,0.07%,99.61%,,,,,,,,,,,,,,,,,CCOc1cc2ncnc(Nc3ccc(Oc4ccc(F)cc4)cc3)c2cc1NC(=O)/C=C/CN(C)C.O=S(=O)(O)O,"Solubility (25 °C, 30 min) EtOH ([2]; EtOH, 25 °C, 30 min, mostly printed as mass of sample / volume of solvent): <0.1 mg/mL; solid stability: impurity RRT= 0.29 ([2]; at day 24): 0.06%; solid stability: impurity RRT= 0.78 ([2]; at day 24): 0.08%; solid stability: impurity RRT= 0.89 ([2]; at day 24): 0.07%; solid stability: purity ([2]; at day 24): 99.54%"
,,,,99.61%,99.61%,0.06%,0.06%,0.02%,0.01%,0.03%,0.03%,0.05%,0.05%,0.06%,0.08%,0.04%,0.05%,0.035%,0.03%,CCOc1cc2ncnc(Nc3ccc(Oc4ccc(F)cc4)cc3)c2cc1NC(=O)/C=C/CN(C)C [free base crystal form F-1],moisture absorption% (80% RH for 24h) [4]: 0.09%
,,,,99.70%,99.68%,0.07%,0.08%,0.02%,0.04%,0.03%,0.03%,0.04%,0.04%,0.02%,0.03%,0.03%,0.03%,0.02%,0.01%,CCOc1cc2ncnc(Nc3ccc(Oc4ccc(F)cc4)cc3)c2cc1NC(=O)/C=C/CN(C)C [free base crystal form F-3],moisture absorption% (80% RH for 24h) [4]: 0.04%
,,,,99.68%,99.65%,0.06%,0.06%,0.02%,0.01%,0.01%,0.03%,0.04%,0.04%,0.02%,0.03%,0.07%,0.05%,0.07%,0.02%,CCOc1cc2ncnc(Nc3ccc(Oc4ccc(F)cc4)cc3)c2cc1NC(=O)/C=C/CN(C)C [free base crystal form F-4],"solid stability: RRT= 0.78 [4, 7]: +0.01%"
,,,,99.13%,99.06%,0.01%,0.02%,0.01%,0.00%,0.53%,0.53%,0.05%,0.07%,0.12%,0.08%,0.07%,0.04%,0.07%,0.03%,CCOc1cc2ncnc(Nc3ccc(Oc4ccc(F)cc4)cc3)c2cc1NC(=O)/C=C/CN(C)C [free base crystal form F-5],"solid stability: RRT= 0.78 [4, 7]: +0.06%"
,,,,99.66%,99.63%,0.04%,0.03%,0.01%,0.00%,0.03%,0.06%,0.05%,0.05%,0.05%,0.05%,0.06%,0.04%,0.06%,0.02%,CCOc1cc2ncnc(Nc3ccc(Oc4ccc(F)cc4)cc3)c2cc1NC(=O)/C=C/CN(C)C [free base crystal form F-6],"solid stability: RRT= 0.78 [4, 7]: +0.01%"
